Measurements as given in US20240360179A1, “STAPLED PEPTIDES AND METHODS THEREOF” (FOG PHARMACEUTICALS, INC., priority 2021, published 2024).
Read-outs that look alike come from different tables or passages of the source.

Chains of the proteins cited; added tags and fusions are not shown.
UniProt P35222, whole entry: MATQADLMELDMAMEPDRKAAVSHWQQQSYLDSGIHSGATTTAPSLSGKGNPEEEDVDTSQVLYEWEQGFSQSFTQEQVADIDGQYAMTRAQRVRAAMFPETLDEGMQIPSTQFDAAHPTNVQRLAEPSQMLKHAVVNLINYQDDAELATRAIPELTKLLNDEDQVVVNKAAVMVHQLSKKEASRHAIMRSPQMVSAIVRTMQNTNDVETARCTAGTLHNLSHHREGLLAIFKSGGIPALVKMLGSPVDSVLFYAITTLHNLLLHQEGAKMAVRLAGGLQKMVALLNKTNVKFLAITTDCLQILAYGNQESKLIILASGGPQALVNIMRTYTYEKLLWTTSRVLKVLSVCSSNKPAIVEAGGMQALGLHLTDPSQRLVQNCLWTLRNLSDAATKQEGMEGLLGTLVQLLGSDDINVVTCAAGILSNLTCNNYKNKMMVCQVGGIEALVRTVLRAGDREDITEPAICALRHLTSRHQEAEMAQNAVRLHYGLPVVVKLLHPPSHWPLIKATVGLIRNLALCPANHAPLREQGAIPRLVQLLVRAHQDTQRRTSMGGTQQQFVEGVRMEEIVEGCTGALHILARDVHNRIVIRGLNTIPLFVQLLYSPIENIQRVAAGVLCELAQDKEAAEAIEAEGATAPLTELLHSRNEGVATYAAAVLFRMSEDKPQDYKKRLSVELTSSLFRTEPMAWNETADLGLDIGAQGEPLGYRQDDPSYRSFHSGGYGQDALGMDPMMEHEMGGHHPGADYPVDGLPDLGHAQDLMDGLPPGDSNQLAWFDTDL

Key:
[1] = molecular target: T1, full-length B-Catenin (Uniprot ID P35222) (Homo sapiens, UniProt P35222); assay type: binding; conditions: competition fluorescence polarization; read-out: beta-Catenin FP IC50
T1 construct: 10 nM full-length B-Catenin (Uniprot ID P35222)

[2] = molecular target: beta-catenin/TCF4 interaction (Homo sapiens, UniProt P35222); assay type: cell-based; set-up: host or cells: HEK293; conditions: read-out: NanoBRET Abs IC50

Substance | IC50 [1] [nM] | IC50 [2] [nM] | IC50 ([2]; absolute IC50) [nM]
Ac-PL3-Asp-Npg-B5-Asp-3COOHF-CyLeu-Gly-Phe-Lys*3-PyrS2-3Thi-BztA-GlnR*3-Ala-NH2 [I-1014] | < 50 | 3000 to 10000 | –
Ac-PL3-Asp-Npg-B5-Asp-3COOHF-CyLeu-aThr-Phe-Lys*3-PyrS2-3Thi-BztA-GlnR*3-Ala-NH2 [I-1020] | < 50 | 3000 to 10000 | –
Ac-PL3-Asp-Npg-B5-Asp-3COOHF-CyLeu-nLeu-Phe-Lys*3-PyrS2-3Thi-BztA-GlnR*3-Ala-NH2 [I-1017] | < 50 | > 10000 | –
Ac-PL3-Asp-Npg-B5-Asp-3COOHF-Gln-Ala-Phe-Lys*3-PyrS2-3Thi-BztA-GlnR*3-Ala-NH2 [I-392] | < 50 | – | 3000 to 10000
Ac-PL3-Asp-Npg-B5-Asp-3COOHF-Leu-Ala-Phe-Lys*3-PyrS2-2Thi-34ClF-GlnR*3-Ala-NH2 [I-917] | < 50 | 3000 to 10000 | –
Ac-PL3-Asp-Npg-B5-Asp-3COOHF-Leu-Ala-Phe-Lys*3-PyrS2-2Thi-BztA-GlnR*3-Ala-NH2 [I-926] | < 50 | 3000 to 10000 | –
Ac-PL3-Asp-Npg-B5-Asp-3COOHF-Phe-Ala-Phe-Lys*3-PyrS2-2Thi-34ClF-GlnR*3-Ala-NH2 [I-919] | < 50 | 3000 to 10000 | –
Ac-PL3-Asp-Npg-B5-Asp-3COOHF-Phe-Ala-Phe-Lys*3-PyrS2-2Thi-BztA-GlnR*3-Ala-NH2 [I-927] | < 50 | 1500 to 3000 | –
Ac-PL3-Asp-Npg-B5-Asp-3COOHF-Phe-Gly-Phe-Lys*3-PyrS2-3Thi-BztA-GlnR*3-Ala-NH2 [I-1015] | < 50 | 3000 to 10000 | –
Ac-PL3-Asp-Npg-B5-Asp-3COOHF-Phe-Ser-Phe-Lys*3-PyrS2-3Thi-BztA-GlnR*3-Ala-NH2 [I-1012] | < 50 | 1500 to 3000 | –
Ac-PL3-Asp-Npg-B5-Asp-3COOHF-Phe-nLeu-Phe-Lys*3-PyrS2-3Thi-BztA-GlnR*3-Ala-NH2 [I-1018] | < 50 | 3000 to 10000 | –
Ac-PL3-Asp-Npg-B5-Asp-3COOHF-Ser-Ala-Phe-Lys*3-PyrS2-3Thi-BztA-GlnR*3-Ala-NH2 [I-390] | < 50 | – | 1500 to 3000
Ac-PL3-Asp-Npg-B5-Asp-3COOHF-Val-Gly-Phe-Lys*3-PyrS2-3Thi-BztA-GlnR*3-Ala-NH2 [I-1016] | < 50 | > 10000 | –
Ac-PL3-Asp-Npg-B5-Asp-3COOHF-Val-Ser-Phe-Lys*3-PyrS2-3Thi-BztA-GlnR*3-Ala-NH2 [I-1013] | < 50 | 3000 to 10000 | –
Ac-PL3-Asp-Npg-B5-Asp-3COOHF-Val-aThr-Phe-Lys*3-PyrS2-3Thi-BztA-GlnR*3-Ala-NH2 [I-1021] | 50 to 200 | > 10000 | –
Ac-PL3-Asp-Npg-B5-Asp-3COOHF-Val-nLeu-Phe-Lys*3-PyrS2-3Thi-BztA-GlnR*3-Ala-NH2 [I-1019] | 50 to 200 | > 10000 | –
Ac-PL3-Asp-Npg-B5-Asp-3COOHF-[Me2diaminohexane]GlnR-Ala-Phe-Leu-PyrS2-2F3MeF-BztA-GlnR-NH2 [I-705] | < 50 | 3000 to 10000 | –
Ac-PL3-Asp-Npg-B5-Asp-3COOHF-[Phc]Acp-Ala-Phe-Lys*3-PyrS2-3Thi-BztA-GlnR*3-Ala-NH2 [I-1028] | < 50 | > 10000 | –
Ac-PL3-Asp-Npg-B5-Asp-3COOHF-[diaminopentane]GlnR-Ala-Phe-Leu-PyrS2-2F3MeF-BztA-GlnR-NH2 [I-704] | < 50 | 3000 to 10000 | –
Ac-PL3-Asp-Npg-B5-Asp-4F3Me2COOHF-Aib-Ala-Phe-Lys*3-PyrS2-2F3MeF-BztA-GlnR*3-Ala-NH2 [I-205] | < 50 | 3000 to 10000 | –
Ac-PL3-Asp-Npg-B5-Asp-TfeGA-Aib-Ala-Phe-Lys*3-PyrS2-2F3MeF-34ClF-GlnR*3-Ala-NH2 [I-892] | < 50 | > 10000 | –
Ac-PL3-Asp-Npg-B5-Asp-TfeGA-Ala-Ala-Phe-Lys*3-PyrS2-2F3MeF-BztA-GlnR*3-Aib-NH2 [I-127] | < 50 | 3000 to 10000 | –
Ac-PL3-Asp-Npg-B5-Asp-TfeGA-Ala-Ala-Phe-Lys*3-PyrS2-Phe-BztA-GlnR*3-Ala-NH2 [I-896] | < 50 | 3000 to 10000 | –
Ac-PL3-Asp-Npg-B5-Asp-TfeGA-Ala-Ala-Phe-Lys*3-PyrS2-Phe-BztA-GlnR*3-Leu-Ser-NH2 [I-898] | < 50 | 3000 to 10000 | –
Ac-PL3-Asp-Npg-B5-Asp-TfeGA-Ala-Ala-Phe-Lys*3-PyrS2-Phe-BztA-GlnR*3-NH2 [I-894] | < 50 | 3000 to 10000 | –
Ac-PL3-Asp-Npg-B5-Asp-TfeGA-Phe-Ala-Phe-Lys*3-PyrS2-Phe-BztA-GlnR*3-Ala-NH2 [I-901] | < 50 | > 10000 | –
Ac-PL3-Asp-Npg-B5-Asp-TfeGA-Phe-Ala-Phe-Lys*3-PyrS2-Phe-BztA-GlnR*3-NH2 [I-900] | < 50 | > 10000 | –
Ac-PL3-Asp-nLeu-B5-Asp-3COOHF-Aic-Ala-Phe-Lys*3-PyrS2-3Thi-BztA-GlnR*3-Ala-NH2 [I-848] | < 50 | 3000 to 10000 | –

Substance | IC50 [1] [nM] | IC50 [2] [nM] | IC50 ([2]; absolute IC50) [nM]
Ac-PL3-Asp-nLeu-B5-Asp-3COOHF-Cbg-Ala-Phe-Lys*3-PyrS2-3Thi-BztA-GlnR*3-Ala-NH2 [I-861] | < 50 | 3000 to 10000 | –
Ac-PL3-Asp-nLeu-B5-Asp-3COOHF-Phe-Ala-Phe-Lys*3-PyrS2-3Thi-BztA-GlnR*3-Ala-NH2 [I-842] | < 50 | 1500 to 3000 | –
Ac-PL3-NGlu-Npg-B5-Asp-3COOHF-Aib-Ala-Phe-Lys*3-PyrS2-3Thi-BztA-GlnR*3-Ala-NH2 [I-935] | 50 to 200 | > 10000 | –
Ac-PL3-RbGlu-Npg-B5-Asp-3COOHF-Aib-Ala-Phe-Lys*3-PyrS2-3Thi-BztA-GlnR*3-Ala-NH2 [I-961] | < 50 | > 10000 | –
Ac-PL3-isoDAsp-Npg-B5-Asp-3COOHF-Aib-Ala-Phe-Lys*3-PyrS2-3Thi-BztA-GlnR*3-Ala-NH2 [I-957] | < 50 | 3000 to 10000 | –
Ac-Pro-S5-Ala-Asp-Npg-B5-Asp-3COOHF-Aib-Ala-Phe-Lys*3-PyrS2-3Thi-BztA-GlnR*3-Ala-NH2 [I-1138] | < 50 | > 10000 | –
Ac-Pro-S5-Ala-Asp-Npg-B5-Asp-3COOHF-Aib-Ala-Phe-Lys*3-PyrS2-3Thi-BztA-GlnR*3-Ala-NH2 [I-1139] | < 50 | > 10000 | –
Ac-S5-3COOHF-Asp-DipA-B5-Asp-3COOHF-Aib-Ala-Phe-Lys*3-PyrS1-Phe-34ClF-GlnR*3-NH2 [I-1806] | < 50 | 3000 to 10000 | –
Ac-S5-AcLys-Asp-DipA-B5-Asp-3COOHF-Aib-Ala-Phe-Lys*3-PyrS1-3Thi-BztA-GlnR*3-NH2 [I-1873] | < 50 | > 10000 | –
Ac-S5-Glu-Asp-DipA-B5-Asp-3COOHF-Aib-Ala-Phe-Lys*3-PyrS1-Phe-34ClF-GlnR*3-NH2 [I-1784] | < 50 | 3000 to 10000 | –
Ac-S5-Phe-Asp-DipA-B5-Asp-3COOHF-Aib-Ala-Phe-Lys*3-PyrS1-Phe-34ClF-GlnR*3-NH2 [I-1808] | < 50 | > 10000 | –
Ac-S5-Phe-Asp-Npg-B5-Asp-3COOHF-Aib-Ala-Phe-Lys*3-PyrS2-3Thi-BztA-GlnR*3-Ala-NH2 [I-1136] | < 50 | > 10000 | –
Ac-S5-Phe-Asp-Npg-B5-Asp-3COOHF-Aib-Ala-Phe-Lys*3-PyrS2-3Thi-BztA-GlnR*3-Ala-NH2 [I-1137] | 50 to 200 | > 10000 | –
Ac-S5-Phe-Asp-Npg-B5-Asp-3COOHF-Aib-Ala-Phe-Lys*3-PyrS2-3Thi-BztA-GlnR*3-Ala-NH2 [I-1148] | < 50 | > 10000 | –
Ac-S5-TfeGA-Asp-DipA-B5-Asp-3COOHF-Aib-Ala-Phe-Lys*3-PyrS1-Phe-34ClF-GlnR*3-NH2 [I-1805] | < 50 | 3000 to 10000 | –
Ac-S5-Thr-Asp-DipA-B5-Asp-3COOHF-Aib-Ala-Phe-Lys*3-PyrS1-Phe-34ClF-GlnR*3-NH2 [I-1807] | < 50 | > 10000 | –
Ac-S5-Val-Asp-Npg-B5-Asp-3COOHF-Aib-Ala-Phe-Lys*3-PyrS2-3Thi-BztA-GlnR*3-Ala-NH2 [I-1130] | > 1000 | > 10000 | –
Ac-S5-Val-Asp-Npg-B5-Asp-3COOHF-Aib-Ala-Phe-Lys*3-PyrS2-3Thi-BztA-GlnR*3-Ala-NH2 [I-1131] | > 1000 | > 10000 | –
EtHNCO-PL3-Asp-Npg-B5-Asp-3COOHF-Aib-Ala-Phe-Lys*3-PyrS2-3Thi-BztA-GlnR*3-Ala-NH2 [I-802] | < 50 | 3000 to 10000 | –
Hex-PL3-Asp-Npg-B5-Asp-3COOHF-Aib-Ala-Phe-Lys*3-PyrS2-3Thi-BztA-GlnR*3-Ala-NH2 [I-746] | < 50 | 3000 to 10000 | –
Isobutyryl-PL3-Asp-Npg-B5-Asp-3COOHF-Aib-Ala-Phe-Lys*3-PyrS2-3Thi-BztA-GlnR*3-Ala-NH2 [I-799] | < 50 | 3000 to 10000 | –
Isovaleryl-PL3-Asp-Npg-B5-Asp-3COOHF-Aib-Ala-Phe-Lys*3-PyrS2-3Thi-BztA-GlnR*3-Ala-NH2 [I-801] | < 50 | > 10000 | –
MeOPr-PL3-Asp-Npg-B5-Asp-3COOHF-Aib-Ala-Phe-Lys*3-PyrS2-3Thi-BztA-GlnR*3-Ala-NH2 [I-750] | < 50 | 1500 to 3000 | –
MeSO2-PL3-Asp-Npg-B5-Asp-3COOHF-Aib-Ala-Phe-Lys*3-PyrS2-3Thi-BztA-GlnR*3-Ala-NH2 [I-754] | < 50 | 3000 to 10000 | –
Ts-PL3-Asp-Npg-B5-Asp-3COOHF-Aib-Ala-Phe-Lys*3-PyrS2-3Thi-BztA-GlnR*3-Ala-NH2 [I-755] | < 50 | 3000 to 10000 | –
Ts-PL3-Asp-Npg-B5-Asp-3COOHF-Aib-Ala-Phe-Lys*3-PyrS2-3Thi-BztA-GlnR*3-Ala-NH2 [I-756] | < 50 | > 10000 | –
lithocholate-PL3-Asp-Npg-B5-Asp-3COOHF-Aib-Ala-Phe-Lys*3-PyrS2-3Thi-BztA-GlnR*3-Ala-NH2 [I-751] | 200 to 750 | > 10000 | –
